Experimental data published in article PMC3575012 (Scientific Reports, 2013).

Target: humanized 3D6 antibody Fab fragment (Bapineuzumab Fab) (humanized (murine parent 3D6) | not stated)
Test: MST

Row | Kd [nM] | Substance
1 | 89 | wild type amyloid-beta peptide, residues 1-40
2 | 151 | wild type amyloid-beta peptide, residues 1-28
